Laboratory results published in ChEMBL document CHEMBL1155252, “Identification of PDE4B Over 4D subtype-selective inhibitors revealing an unprecedented binding mode” (Bioorg Med Chem, 2009).

The chains behind the UniProt entries cited, without tags or fusion partners. Where a name states a change or a piece, a line headed by the entry shows the natural chain unless it says otherwise.
UniProt Q08499: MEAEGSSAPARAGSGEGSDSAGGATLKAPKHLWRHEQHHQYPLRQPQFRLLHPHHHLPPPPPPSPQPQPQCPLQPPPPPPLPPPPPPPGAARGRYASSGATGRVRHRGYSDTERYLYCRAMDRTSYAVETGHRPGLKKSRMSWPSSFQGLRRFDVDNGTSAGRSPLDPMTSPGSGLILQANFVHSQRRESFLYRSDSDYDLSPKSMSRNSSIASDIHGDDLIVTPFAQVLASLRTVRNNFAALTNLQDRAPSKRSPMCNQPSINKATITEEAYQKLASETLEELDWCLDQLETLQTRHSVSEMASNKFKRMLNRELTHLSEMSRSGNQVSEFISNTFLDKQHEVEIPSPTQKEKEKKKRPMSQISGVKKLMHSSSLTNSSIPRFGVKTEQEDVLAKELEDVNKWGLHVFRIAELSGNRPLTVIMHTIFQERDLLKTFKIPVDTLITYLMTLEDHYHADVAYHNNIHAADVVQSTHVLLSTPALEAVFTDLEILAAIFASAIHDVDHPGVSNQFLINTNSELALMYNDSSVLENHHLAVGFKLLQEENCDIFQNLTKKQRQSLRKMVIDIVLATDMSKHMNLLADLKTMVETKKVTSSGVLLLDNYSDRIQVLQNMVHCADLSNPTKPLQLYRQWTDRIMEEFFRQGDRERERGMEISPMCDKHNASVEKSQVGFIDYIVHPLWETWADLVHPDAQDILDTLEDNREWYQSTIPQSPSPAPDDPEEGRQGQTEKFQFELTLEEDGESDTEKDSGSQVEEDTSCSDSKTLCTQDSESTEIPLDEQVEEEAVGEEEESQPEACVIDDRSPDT
UniProt Q07343: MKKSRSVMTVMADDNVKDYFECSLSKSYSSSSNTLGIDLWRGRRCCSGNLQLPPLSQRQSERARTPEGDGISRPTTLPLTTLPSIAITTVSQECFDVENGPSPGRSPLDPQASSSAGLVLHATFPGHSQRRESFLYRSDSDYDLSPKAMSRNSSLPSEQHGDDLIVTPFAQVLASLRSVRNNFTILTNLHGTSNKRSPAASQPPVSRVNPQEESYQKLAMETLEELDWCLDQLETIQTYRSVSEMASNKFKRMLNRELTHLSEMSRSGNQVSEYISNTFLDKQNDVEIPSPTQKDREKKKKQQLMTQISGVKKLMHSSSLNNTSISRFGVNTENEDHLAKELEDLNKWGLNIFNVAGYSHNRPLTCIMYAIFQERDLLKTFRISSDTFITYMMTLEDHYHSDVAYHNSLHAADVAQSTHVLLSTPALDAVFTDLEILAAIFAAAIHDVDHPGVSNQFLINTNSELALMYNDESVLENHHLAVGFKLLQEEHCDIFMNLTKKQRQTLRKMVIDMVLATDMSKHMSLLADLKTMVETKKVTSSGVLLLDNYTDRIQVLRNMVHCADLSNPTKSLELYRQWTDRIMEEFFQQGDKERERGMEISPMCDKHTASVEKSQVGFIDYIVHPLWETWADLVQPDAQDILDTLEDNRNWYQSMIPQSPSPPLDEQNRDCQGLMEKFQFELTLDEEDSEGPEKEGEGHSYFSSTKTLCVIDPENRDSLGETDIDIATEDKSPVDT

Legend:
[1] = molecular target: 3',5'-cyclic-AMP phosphodiesterase 4D (Homo sapiens, UniProt Q08499); test: Inhibition of PDE4D by luciferase-coupled assay
[2] = molecular target: 3',5'-cyclic-AMP phosphodiesterase 4B (Homo sapiens, UniProt Q07343); test: Inhibition of PDE4B by luciferase-coupled assay

pIC50 [1]: 6.30
pIC50 [2]: 7.30
Structure (SMILES): CC1CCc2c(sc(NC(=O)c3ccccc3[N+](=O)[O-])c2C(N)=O)C1 (configuration not stated)

pIC50: −log10 of the molar value.
